Results published in patent US9290490B2 (Merck Sharp & Dohme Corp., priority 2011, dated 2016).

Target: recombinant human GST-Syk (Homo sapiens (Human), UniProt P43405)
Experiment: Homogeneous Time-Resolved Fluorescence (HTRF) Assay for the Recombinant Human Syk Enzyme
Type: biochemical
Conditions: read-out: rhSyk Activity (IC50), recombinant human GST-Syk 5 pM, ATP 25 μM

Structure (SMILES) | IC50 [nM] | also measured
CCCCOC(=O)[C@H]1CC[C@H](C(C)(O)c2ncc(-c3cc(C)cc(Nc4nccc(C(F)F)n4)c3)s2)CC1 (single isomer, unassigned) | 100 to 1000 | 
CC(C)C(O)(c1ncc(-c2cccc(Nc3nccc(C(F)(F)F)n3)c2)s1)[C@H]1CC[C@H](C(=O)O)CC1 (single isomer, unassigned) | < 100 | 
CCC(O)(c1ncc(-c2cc(C)cc(Nc3nccc(C)n3)c2)s1)[C@H]1CC[C@H](C(=O)O)CC1 (single isomer, unassigned) | < 100 | 
COc1ccnc(Nc2cc(C)cc(-c3cnc(C(C)(O)[C@H]4CC[C@H](C(=O)O)CC4)s3)c2)n1 (single isomer, unassigned) |  | IC50 (tested form: ammonium salt): < 100 nM
COc1nc(Nc2cc(C)cc(-c3cnc(C(C)(O)[C@H]4CC[C@H](C(=O)O)CC4)s3)c2)ncc1Cl (single isomer, unassigned) |  | IC50 (tested form: ammonium salt): < 100 nM
COc1nc(Nc2cc(C)cc(-c3cnc(C(C)(O)[C@H]4CC[C@H](C(=O)O)CC4)s3)c2)ncc1F (single isomer, unassigned) |  | IC50 (tested form: ammonium salt): < 100 nM
Cc1cc(Nc2nccc(C(C)C)n2)cc(-c2cnc(C(C)(O)[C@H]3CC[C@H](C(=O)O)CC3)s2)c1 (single isomer, unassigned) |  | IC50 (tested form: ammonium salt): < 100 nM
Cc1cc(Nc2nccc(C(F)(F)F)n2)cc(-c2cnc(C(C)(O)C3CC4C(C3)C4C(=O)O)s2)c1 (single isomer, unassigned) |  | IC50 (tested form: TFA): < 100 nM
Cc1cc(Nc2nccc(C(F)(F)F)n2)cc(-c2cnc(C(F)[C@H]3CC[C@H](C(=O)O)CC3)s2)c1 (single isomer, unassigned) |  | IC50 (tested form: TFA): < 100 nM
Cc1cc(Nc2nccc(C(F)(F)F)n2)cc(-c2cnc(C(O)([C@H]3CC[C@H](C(=O)O)CC3)C(F)(F)F)s2)c1 (single isomer, unassigned) | < 100 | 
Cc1cc(Nc2nccc(C(F)(F)F)n2)cc(-c2cnc(C(O)C3(O)CCC(C(=O)O)CC3)s2)c1 (single isomer, unassigned) | < 100 | 
Cc1cc(Nc2nccc(C(F)F)n2)cc(-c2cnc(C(C)(O)C3CCC(C(=O)O)C(C)C3)s2)c1 (single isomer, unassigned) | < 100 | 
Cc1cc(Nc2nccc(C(F)F)n2)cc(-c2cnc(C(O)([C@H]3CC[C@H](C(=O)O)CC3)C(F)(F)F)s2)c1 (single isomer, unassigned) | < 100 | 
Cc1cc(Nc2nccc(C)n2)cc(-c2cnc(C(C)(O)C3CCC(C(=O)O)C(C)C3)s2)c1 (single isomer, unassigned) | < 100 | 
Cc1cc(Nc2nccc(C)n2)cc(-c2cnc(C(C)(O)[C@H]3CC[C@@H](C(=O)O)[C@@H](C)C3)s2)c1 (single isomer, unassigned) | < 100 | 
Cc1cc(Nc2nccc(C)n2)cc(-c2cnc(C(C)(O)[C@H]3CC[C@H](c4nn[nH]n4)CC3)s2)c1 (single isomer, unassigned) |  | IC50 (tested form: TFA): < 100 nM
Cc1cc(Nc2nccc(C)n2)cc(-c2cnc(C(O)(CO)[C@H]3CC[C@H](C(=O)O)CC3)s2)c1 (single isomer, unassigned) | < 100 | 
Cc1cc(Nc2nccc(OC(C)C)n2)cc(-c2cnc(C(C)(O)[C@H]3CC[C@H](C(=O)O)CC3)s2)c1 (single isomer, unassigned) |  | IC50 (tested form: ammonium salt): < 100 nM

Continued, in another order:

IC50 [nM] | Structure (SMILES) | also measured
< 100 | CCC(O)(c1ncc(-c2cc(C)cc(Nc3nccc(C(F)(F)F)n3)c2)s1)[C@H]1CC[C@H](C(=O)O)CC1 (single isomer, unassigned) | 
100 to 1000 | CCOC(=O)C1CCC(C(C)(O)c2ncc(-c3cc(C)cc(Nc4nccc(C(F)(F)F)n4)c3)s2)CC1C (single isomer, unassigned) | 
100 to 1000 | CCOC(=O)[C@@H]1CC[C@@H](C(C)(O)c2ncc(-c3cc(C)cc(Nc4nccc(C(F)(F)F)n4)c3)s2)C[C@@H]1C (single isomer, unassigned) | 
< 100 | Cc1cc(Nc2ncc(F)c(C)n2)cc(-c2cnc(C(C)(O)C3CC(CC(=O)O)C3(C)C)s2)c1 (single isomer, unassigned) | 
< 100 | Cc1cc(Nc2nccc(C(F)(F)F)n2)cc(-c2cnc(C(C)(O)C3CC(CC(=O)O)C3(C)C)s2)c1 (single isomer, unassigned) | 
< 100 | Cc1cc(Nc2nccc(C(F)(F)F)n2)cc(-c2cnc(C(C)(O)C3CCC(C(=O)O)C(C)C3)s2)c1 (single isomer, unassigned) | 
< 100 | Cc1cc(Nc2nccc(C(F)(F)F)n2)cc(-c2cnc(C(O)(C(C)C)[C@H]3CC[C@H](C(=O)O)CC3)s2)c1 (single isomer, unassigned) | 
< 100 | Cc1cc(Nc2nccc(C(F)(F)F)n2)cc(-c2cnc(C(O)(CO)[C@H]3CC[C@H](C(=O)O)CC3)s2)c1 (single isomer, unassigned) | 
< 100 | Cc1cc(Nc2nccc(C)n2)cc(-c2cnc(C(C)(O)C3CC(CC(=O)O)C3(C)C)s2)c1 (single isomer, unassigned) | 

Read-outs that look alike come from different tables or passages of the source.
